Assay outcomes: PubChem BioAssay, National Center for Advancing Translational Sciences (NCATS)
In the library only some 1.7% were active in any assay of this set; here they are far more common.
Pin1 inh = blocks the human prolyl isomerase Pin1; Q13526; Pin1 FP peptide displacement, HiFluor488, 10 min; Potency, µM (series often up to 115 µM), inactives show at the top dose activity, negative = inhibition, usual class: inhibitors; actives 0.009% (n = 390,000); active = well fitted inhibition curve with a large enough effect in the polarisation, with a control signal flat, not every such curve was filed as active; inconclusive = small, poorly fitted or top-dose-only effect, or effect the other way, or a change in a side signal; inactive = no such curve, though single readings can be large or run the other way; the % refers to the polarisation; note: potency is the fitted concentration of half-maximal effect; % is set by controls: 0 for no effect and ±100 for the full control effect
GLP-1R agonist = GLP-1 receptor (human) agonism; actives 0.007% (n = 380,000); HEK293 GLP-1R CRE-luciferase, luminescence, 4-6 h; cells express a hypersensitive GLP-1R form; Potency, µM (titrated, usually from 45.6 µM), for inactives: at the highest dose activation, usual class: activators; P43220; note: potency is the fitted concentration of half-maximal effect; % of control where 0% means no effect
GLP-1R inv ag = inverse agonists of human GLP-1 receptor. actives 1.6% (n = 410,000). Potency, µM (titrated, usually from 38.3 µM), for the others: at the top dose activity change, negative = inhibition, actives largely listed as inhibitors. HEK293 GLP-1R CRE-luciferase, luminescence, 24 h; GLP-1R form is constitutively active. P43220; note: potency is the fitted concentration of half-maximal effect; % is set by controls: 0 for no effect and ±100 for the full control effect; nearly all actives have a fitted effect of over 55% in size
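qHTS in 1536-well format: reporter HEK293 cells expressing constitutive GLP-1R activity in DMEM + 10% Nu serum, 24 hr with compounds at 37 deg C, luminescence read after 12 min with detection reagent.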
GLP1R cytotox = cytotoxic in the GLP-1 receptor inverse agonist counter-screen. Potency, µM (highest dose often 38.3 µM), for inactives: top-dose activity change, negative = inhibition, actives largely listed as inhibitors. HEK293 cAMP-luciferase reporter cells, luminescence, 24 h. actives 0.13% (n = 410,000). AID 624418;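 note: loss of luciferase light is scored as toxicity; potency is the fitted concentration of half-maximal effect; % is set by controls: 0 for no effect and ±100 for the full control effect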
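Step one: seed cells (200 cells/uL, DMEM with 10% Nu serum, 1% pen-strep). Step two: 12-hour incubation at 37 deg C. Step three: pin 23 nL compound, incubate 24 hr. Step four: add luciferase reagent, read luminescence 12 min later.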
PTHR1 ag = activates the human parathyroid hormone receptor PTHR1; HEK293 GP2 PTHR1 cells, GloSensor cAMP luminescence, 1 h; Q03431; actives 0.075% (n = 410,000); AID 743266; Potency, µM (highest dose often 115 µM), for the others: at the highest dose activation, usual class: activators; note: potency is the fitted concentration of half-maximal effect; nearly all actives have a fitted effect of over 55% in size
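HEK-293-derived GP2 cells expressing PTHR1 and a GloSensor cAMP reporter, 3,000/well, plated overnight, given luciferin plus IBMX (each 0.5 mM as added) for 1 h at 37 °C, then compound for 1 h at 37 °C. Luminescence was read after 15 min at room temperature.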
miR-21 reporter = raises the signal of a miR-21 reporter; Potency, µM (doses to about 38.3 µM), inactives show top-dose reporter change, positive = more light; HeLa miR-21 FLuc reporter, luciferase, 48 h; AID 2288; 340,000 tested, under 10 active; active = well fitted rising curve with a large enough effect; inconclusive = small, poorly fitted or top-dose-only effect; inactive = no such curve, though single readings can be large or run the other way;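 further: % of control where 0% means no effect; miR-21 action dims this reporter so a rising signal means less miR-21 action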
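Luminescence from a firefly luciferase reporter carrying a miR-21 binding site downstream, stably expressed under a CMV promoter in HeLa cells that make miR-21 endogenously, reports miRNA modulation after 48 h compound exposure up to approximately 40uM final.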
* marks the source's active call; other numbers are inactive results; [ ] = dose if it differs, or a comment. Unless noted, calls come from the whole dose curve; as a rule, active = well fitted curve in the direction sought with a large enough effect; inconclusive = small, poorly fitted or top-dose-only effect, or another doubt; inactive = no such curve, though single readings can be large; an effect the other way counts as inactive or inconclusive.

The first two entries, ahead of the listing:
For S=C(NCc1ccco1)N1CCN(C(c2ccccc2)c2ccccc2)CC1 the results were Pin1 inh 14.6%, GLP-1R agonist 0.3%, GLP-1R inv ag inconclusive, GLP1R cytotox 9.1%, PTHR1 ag inactive and miR-21 reporter 13.7%.
`COCCCNC(=S)N1CCN(C(c2ccccc2)c2ccccc2)CC1` gave Pin1 inh 17.1%, GLP-1R agonist 3.8%, GLP-1R inv ag 10µM*, GLP1R cytotox 12.9%, PTHR1 ag -41.6% and miR-21 reporter -1.7%.

All compounds of this part, from the start:
For S=C(NCc1ccco1)N1CCN(C(c2ccccc2)c2ccccc2)CC1 the results were Pin1 inh 14.6%, GLP-1R agonist 0.3%, GLP-1R inv ag inconclusive, GLP1R cytotox 9.1%, PTHR1 ag inactive and miR-21 reporter 13.7%.
`COCCCNC(=S)N1CCN(C(c2ccccc2)c2ccccc2)CC1` gave Pin1 inh 17.1%, GLP-1R agonist 3.8%, GLP-1R inv ag 10µM*, GLP1R cytotox 12.9%, PTHR1 ag -41.6% and miR-21 reporter -1.7%.
Screening CCNC(=S)N1CCC(C(O)(c2ccccc2)c2ccccc2)CC1 returned Pin1 inh -13.1%, GLP-1R agonist 10.5%, GLP-1R inv ag -20.5%, GLP1R cytotox -9.1%, PTHR1 ag inactive and miR-21 reporter -0.6%.
For COc1cc(NC(=S)N2CCC(C(O)(c3ccccc3)c3ccccc3)CC2)cc(OC)c1 the results were Pin1 inh 1.3%, GLP-1R agonist -4.9%, GLP-1R inv ag 10µM*, GLP1R cytotox 3.9%, PTHR1 ag -2.8% and miR-21 reporter -15.1%.
COc1ccc2oc(C(=O)OCC(=O)N(Cc3ccccc3)C(C)C)c(C)c2c1 was read as Pin1 inh 21.2%, GLP-1R agonist 15.4%, GLP-1R inv ag 11.2µM*, GLP1R cytotox 3.0% and PTHR1 ag -18.9%.
For COc1ccc2oc(C(=O)N3CCN(C(c4ccccc4)c4ccccc4)CC3)c(C)c2c1 the results were Pin1 inh 11.2%, GLP-1R agonist 10.5%, GLP-1R inv ag 5.62µM*, GLP1R cytotox 0.9% and PTHR1 ag inactive.
O=C(Nc1ccc(F)cc1C(F)(F)F)C1CCN(c2ncccn2)CC1 was read as Pin1 inh -6.3%, GLP-1R inv ag -4.1%, GLP1R cytotox 5.9%, PTHR1 ag -0.8% and miR-21 reporter -1.4%.
CC(C)CNC(=S)N1CCN(C(c2ccccc2)c2ccccc2)CC1 was read as Pin1 inh -2.2%, GLP-1R agonist 3.0%, GLP-1R inv ag 2.82µM*, GLP1R cytotox -11.4%, PTHR1 ag -11.1% and miR-21 reporter 1.8%.
Screening COc1ccc(N2CCN(C(=O)c3oc4ccccc4c3NC(=O)Cc3ccc(OC)c(OC)c3)CC2)cc1 returned Pin1 inh 2.6%, GLP-1R agonist -4.0%, GLP-1R inv ag -41.5%, GLP1R cytotox -9.3%, PTHR1 ag -22.4% and miR-21 reporter -0.4%.
Screening C=C(C)CNC(=S)N1CCN(C(c2ccccc2)c2ccccc2)CC1 returned Pin1 inh 5.5%, GLP-1R agonist 10.5%, GLP-1R inv ag inconclusive, GLP1R cytotox 2.7%, PTHR1 ag -10.2% and miR-21 reporter 13.3%.
For COc1ccc(N2CCN(C(=O)c3oc4ccccc4c3NC(=O)Cc3cccc(OC)c3)CC2)cc1 the results were Pin1 inh -2.3%, GLP-1R agonist 3.0%, GLP-1R inv ag 8.91µM*, GLP1R cytotox -13.0%, PTHR1 ag -25.1% and miR-21 reporter 4.8%.
COc1ccc(NC(=S)N2CCN(C(c3ccccc3)c3ccccc3)CC2)c(OC)c1 was read as Pin1 inh 13.4%, GLP-1R agonist 2.7%, GLP-1R inv ag inconclusive, GLP1R cytotox 11.3%[7.66 µM], PTHR1 ag -24.3% and miR-21 reporter 0.0%.
`COc1cccc(NC(=S)N2CCN(C(c3ccccc3)c3ccccc3)CC2)c1` gave Pin1 inh 4.1%, GLP-1R agonist -21.4%, GLP-1R inv ag 10µM*, GLP1R cytotox 1.7%, PTHR1 ag inactive and miR-21 reporter -18.9%.
`COc1ccc(-n2c(/C=C/c3cccc4ccccc34)nc3ccccc3c2=O)cc1Cl` gave Pin1 inh 1.4%, GLP-1R inv ag 13.5%, GLP1R cytotox -3.4%, PTHR1 ag -39.9% and miR-21 reporter -4.1%.
Screening CCCCCC1Nc2cc(C(F)(F)F)c(S(N)(=O)=O)cc2S(=O)(=O)N1 (stereo not given) returned GLP-1R agonist 2.6%.
